## Antibody variant affinities, Ab-14 heavy chain, assay 1

Data: MIT Lincoln Laboratory AlphaSeq set, Engelhart et al. 2022, doi:10.1038/s41597-022-01779-4, as distributed in FLAb.

All variants were tested on one target, the spike HR2 peptide PDVDLGDISGINAS (SARS-CoV-2).

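The parent was found by panning a naive human phage display library on the peptide. The library (AAYL49) carries one to three amino acid substitutions per variant, with no insertions or deletions. The scFvs were displayed on barcoded MATa yeast, the peptide on MATalpha yeast. The frequency of each diploid, read from paired DNA barcodes, reflects how well the two displayed proteins bind. Scores were corrected for input abundance and mapped to Kd with protein pairs of known affinity run in the same pool. There are three technical replicates.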

Parent scFv Ab-14: VH joined to VL by a 15-residue (Gly4Ser)3 linker. Changes lie in the heavy chain CDRs alone.
VH: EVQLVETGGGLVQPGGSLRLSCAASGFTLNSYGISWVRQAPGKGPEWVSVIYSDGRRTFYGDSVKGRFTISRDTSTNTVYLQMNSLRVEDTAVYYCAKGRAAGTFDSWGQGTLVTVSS
VL: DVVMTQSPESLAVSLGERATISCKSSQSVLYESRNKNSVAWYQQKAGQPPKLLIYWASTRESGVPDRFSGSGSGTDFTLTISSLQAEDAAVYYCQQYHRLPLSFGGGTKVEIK

The parent's heavy chain CDRs are GFTLNSYGIS, VIYSDGRRTFYGDSVK, GRAAGTFDS; each variant's own CDRs replace them letter for letter.
Numbers give log10(Kd / nM), so 0 is 1 nM and 3 is 1 µM. Smaller is tighter.
"n.d." means that the variant was in the library but no mating with the target was seen in that replicate; the authors take this as a sign of poor binding, and no number exists.
Empty control strains, which show no peptide, gave a signal in 15% of pairings with library AAYL49; the median was 4.06 and 95% of these signals were weaker than 2.83. No background was subtracted. Also given: how often the same scFv was detected with the empty control strains, with their mean in brackets.

| # | CDR-H1 | CDR-H2 | CDR-H3 | replicates, log10 nM | control signals |
|---|---|---|---|---|---|
| 1 | GFTLNSYGNS | VEYSDGRRTFYGDSVS | GRAAGTFDS | 6.71 / n.d. / n.d. | 4 of 9 (5.45) |
| 2 | GFTLNAYGIS | VIYSDGRRTFYGDSVK | GRAAGTFHS | 3.60 / n.d. / n.d. | 0 of 9 |
| 3 | GFTLNSYGIS | VIKSDGRRNFYGDSVK | GRAAGTFLS | 5.72 / 5.47 / 5.43 | 6 of 9 (4.62) |
| 4 | GFTGNSYIIS | VIYSDGRRTFYGDSVK | GRAAGRFDS | n.d. / n.d. / 3.21 | 1 of 9 (3.81) |
| 5 | GFTLNSYGIS | VIYSDGLRTFYGDSVK | GWAVGTFDS | 1.99 / 1.98 / 1.69 | 0 of 9 |
| 6 | PFTLNSYGIS | VIYSDGRRTFYGDSVK | CRHAGTFDS | n.d. / 3.86 / n.d. | 3 of 9 (4.71) |
| 7 | GFTLNSYGIS | VIRSYGRRTFYGDSVK | GRAAGPFDS | n.d. / n.d. / n.d. | 1 of 9 (3.34) |
| 8 | GFTLNSYGIS | VIYSDGRRTFYGDSVK | PRAAGTRDI | 2.88 / n.d. / n.d. | 0 of 9 |
| 9 | GFTLNSYGIS | VIYWDGRRTFYGDSVK | GRAAGTRDG | n.d. / n.d. / n.d. | 0 of 9 |
| 10 | GFTLNSYGGS | VIYSHGRRTFYGDSVK | GRSAGTFDS | n.d. / 3.31 / n.d. | 3 of 9 (3.61) |
| 11 | GFTLNSYGIS | VIYADGRRTFYGDSVK | GRAAGTNKS | -0.34 / -0.02 / -0.18 | 0 of 9 |
| 12 | GFTLNSYGIS | VIYSDGRRFFYGDSVK | GCAASTFDS | 4.74 / 3.54 / 4.07 | 3 of 9 (4.76) |
| 13 | GFTLNSYGIS | VQYSDGRRTFYEDSVK | GRAPGTFDS | n.d. / n.d. / n.d. | 0 of 9 |
| 14 | WSTLNSYGIS | VIYSDGRRTFYGDSVK | GRAAGTYDS | 1.55 / 1.40 / 1.67 | 0 of 9 |
| 15 | GFTLNSYGIS | VIYSDGRRTFYGDSVV | GRAAQTTDS | n.d. / 5.36 / n.d. | 1 of 9 (4.06) |
| 16 | DFTLNSYGIS | VIYSDIRRTFYGDSVK | GRAANTFDS | n.d. / n.d. / n.d. | 0 of 9 |
| 17 | GFTLNSYRIS | VISSDGRRTFYGDSVK | GRAAGTFDS | n.d. / n.d. / n.d. | 0 of 9 |
| 18 | GFTLNSYGIS | VIYSDGRRTPYGRSVK | GRNAGTFDS | n.d. / n.d. / n.d. | 0 of 9 |
| 19 | GFTLNSYGIS | VDYSDGRRTFYGDNVK | GRAAGTFDS | n.d. / n.d. / n.d. | 1 of 9 (4.21) |
| 20 | HFTLISYGIS | VIYSDGRRTQYGDSVK | GRAAGTFDS | n.d. / 4.30 / 4.07 | 0 of 9 |
| 21 | GFELNSYYIS | VIYSDGRRTFYGDSVK | LRAAGTFDS | n.d. / n.d. / 5.35 | 1 of 9 (2.41) |
| 22 | NETLNSYGIS | VIYSDGRRTFYGDSVK | CRAAGTFDS | n.d. / n.d. / n.d. | 0 of 9 |
| 23 | GDTLNSYGIS | VIYSDGRATFYGDSVK | GRAAGTVDS | 3.48 / n.d. / n.d. | 2 of 9 (3.31) |
| 24 | HFTANSYGIS | VIYSDGRRTFYGDSVK | GRAAGTMDS | n.d. / n.d. / n.d. | 0 of 9 |
| 25 | CFTLNSYGIS | LIYSDGRRTFYGDSVK | GRAAGNFDS | n.d. / n.d. / 4.15 | 2 of 9 (3.42) |
| 26 | DFTLNSYGIS | VIYSDGRRTTYGDSVK | GEAAGTFDS | n.d. / n.d. / n.d. | 0 of 9 |
| 27 | GFTLFSYGIS | VIYSDGRRTFYGDSVK | GKAAGSFDS | 3.31 / 2.85 / 2.79 | 1 of 9 (4.41) |
| 28 | GVTLNSYGIS | VQYSDGRRTFYGDSVK | GRAAGTFDS | n.d. / n.d. / 4.53 | 5 of 9 (3.28) |
| 29 | CFTLNSYGIS | VIYCDGRRTFYGDSVK | GRAMGTFDS | n.d. / n.d. / n.d. | 0 of 9 |
| 30 | GFTLNSYGGS | VCYSDGRRTFYGDSVK | GRAAGTFDS | 5.67 / 3.57 / n.d. | 1 of 9 (4.61) |
| 31 | GFTLNGYGIS | NIYSDGRRTFYGDSVK | GRAAGTYDS | n.d. / 5.37 / n.d. | 2 of 9 (4.33) |
| 32 | GFTLNSYGIS | VIYSDGRRTFYGASVK | PTAAGTFDS | n.d. / n.d. / n.d. | 1 of 9 (3.28) |
| 33 | GFTLNSYPIS | VIKSDGRRTFYGDCVK | GRAAGTFDS | n.d. / 3.11 / 4.54 | 4 of 9 (3.66) |
| 34 | GFTLNSYGIS | VIYSDGRRTFYGDGKK | GRAYGTFDS | n.d. / n.d. / n.d. | 0 of 9 |
| 35 | GFTLNSYGIS | VIYSDGRRTFYGQSVA | ERAAGTFDS | n.d. / n.d. / n.d. | 0 of 9 |
| 36 | NFTLNSYGIS | VIYSDGRRTYYGDSVK | GRAAGTFDS | 1.64 / 1.47 / 1.63 | 3 of 9 (3.97) |
| 37 | GFTLNSYGIS | VIYSDGRRNFYGHSVK | GRAAVTFDS | n.d. / n.d. / n.d. | 0 of 9 |
| 38 | GSTPNSYGIS | FIYSDGRRTFYGDSVK | GRAAGTFDS | n.d. / n.d. / 4.97 | 3 of 9 (3.75) |
| 39 | GFTLRSYGIS | VIFSDGRRTFYGDSVK | GRAAGTFDS | 2.02 / 2.18 / 2.02 | 1 of 9 (3.61) |
| 40 | GFTLNSYGIS | VIYSHGRRTGYGDSVK | LRAAGTFDS | n.d. / n.d. / n.d. | 0 of 9 |
| 41 | GFTLNSYGIN | VIYSDGRRTFYGDSVI | DRAAGTFDS | n.d. / n.d. / n.d. | 0 of 9 |
| 42 | GFTLWSYGIW | VIYSDGRRTFYGDCVK | GRAAGTFDS | n.d. / 4.39 / n.d. | 0 of 9 |
| 43 | GFTLNSYGIG | VQYSDGRRTFYGDSVD | GRAAGTFDS | n.d. / n.d. / n.d. | 1 of 9 (2.27) |
| 44 | GFTLNSYGIS | VIYFDGRRDFYGDSVK | GRAAGTFDQ | 2.52 / 2.01 / 2.82 | 0 of 9 |
| 45 | GFTLNSYGIS | VIYSDGRRTFYGDIVK | GGAAGTFDI | 2.65 / n.d. / n.d. | 0 of 9 |
| 46 | GFTLNSYAPS | VIYSDGRRTFYGDSVK | GRAAGTFDS | n.d. / n.d. / n.d. | 1 of 9 (3.85) |
| 47 | GFTLNSYGIS | VIYNDGRRLFYGDSWK | GRAAGTFDS | n.d. / n.d. / n.d. | 1 of 9 (3.27) |
| 48 | GFLTNSYGIS | VIYSDGRRTFYGDSVK | GRAAGTFIS | n.d. / n.d. / 3.90 | 2 of 9 (4.13) |
| 49 | EFTLNSYGIS | VIYSDGRRYFYGDSVK | GRAAGTFDS | n.d. / 2.52 / n.d. | 0 of 9 |
| 50 | GFTLNYYGIS | VIYSDGRRTFAGDSVK | DRAAGTFDS | n.d. / n.d. / n.d. | 0 of 9 |

Top 3 of the variants detected in all replicates, tightest first:

{"CDR-H1": "GFTLNSYGIS", "CDR-H2": "VIYADGRRTFYGDSVK", "CDR-H3": "GRAAGTNKS", "replicates, log10 nM": "-0.34 / -0.02 / -0.18", "control signals": "0 of 9"}
{"CDR-H1": "WSTLNSYGIS", "CDR-H2": "VIYSDGRRTFYGDSVK", "CDR-H3": "GRAAGTYDS", "replicates, log10 nM": "1.55 / 1.40 / 1.67", "control signals": "0 of 9"}
{"CDR-H1": "NFTLNSYGIS", "CDR-H2": "VIYSDGRRTYYGDSVK", "CDR-H3": "GRAAGTFDS", "replicates, log10 nM": "1.64 / 1.47 / 1.63", "control signals": "3 of 9 (3.97)"}